Experimental data published in patent US9751831B2, “Blood brain barrier-penetrating oximes for cholistenerases reactivation” (dated 2017).

By UniProt entry, the sequences of proteins in these tests, tags left out. Where a name states a change or a piece, a line headed by the entry shows the natural chain unless it says otherwise. Residues count along the entry.
UniProt P22303: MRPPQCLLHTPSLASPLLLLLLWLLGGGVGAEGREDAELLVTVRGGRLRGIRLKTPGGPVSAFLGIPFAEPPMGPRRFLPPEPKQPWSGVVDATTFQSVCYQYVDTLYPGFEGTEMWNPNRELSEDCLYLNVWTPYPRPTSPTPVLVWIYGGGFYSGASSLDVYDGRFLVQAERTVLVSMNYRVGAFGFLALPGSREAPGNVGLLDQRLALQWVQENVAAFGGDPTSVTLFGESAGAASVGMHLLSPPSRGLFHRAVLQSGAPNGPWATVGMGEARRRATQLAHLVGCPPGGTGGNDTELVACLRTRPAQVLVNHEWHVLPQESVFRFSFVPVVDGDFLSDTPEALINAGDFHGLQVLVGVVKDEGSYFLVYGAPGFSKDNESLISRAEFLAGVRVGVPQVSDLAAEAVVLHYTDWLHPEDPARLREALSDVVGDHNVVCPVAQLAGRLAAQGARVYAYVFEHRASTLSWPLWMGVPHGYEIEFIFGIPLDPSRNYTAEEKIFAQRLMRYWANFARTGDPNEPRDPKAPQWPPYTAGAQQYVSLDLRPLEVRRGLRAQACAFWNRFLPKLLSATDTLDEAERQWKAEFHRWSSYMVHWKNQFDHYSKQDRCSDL
UniProt P06276, 29-602 limits assumed: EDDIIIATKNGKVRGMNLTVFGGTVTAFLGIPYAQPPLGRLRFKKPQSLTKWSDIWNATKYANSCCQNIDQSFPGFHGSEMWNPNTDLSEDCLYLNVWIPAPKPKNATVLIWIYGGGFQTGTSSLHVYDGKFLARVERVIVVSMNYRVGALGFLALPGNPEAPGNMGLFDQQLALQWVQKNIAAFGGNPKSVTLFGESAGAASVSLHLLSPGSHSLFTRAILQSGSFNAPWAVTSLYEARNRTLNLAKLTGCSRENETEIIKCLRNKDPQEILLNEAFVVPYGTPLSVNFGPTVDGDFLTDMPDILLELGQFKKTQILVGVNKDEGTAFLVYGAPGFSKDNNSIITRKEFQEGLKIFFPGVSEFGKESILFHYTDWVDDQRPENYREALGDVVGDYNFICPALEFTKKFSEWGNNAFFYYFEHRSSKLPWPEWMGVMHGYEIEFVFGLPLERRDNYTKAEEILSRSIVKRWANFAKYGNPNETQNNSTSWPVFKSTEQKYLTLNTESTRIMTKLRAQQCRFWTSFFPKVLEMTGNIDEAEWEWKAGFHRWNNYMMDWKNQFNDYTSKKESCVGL

How the values were obtained:
hAChE = hAChE (Homo sapiens, UniProt P22303); assay: Reactivation of OP (nerve agent model compound)-inhibited hAChE, modified Ellman's assay; conditions: for Reactivation of Sp-GBC-inhibited ChEs, Relative activity [%], hAChE / Reactivation of Sp-GF-SMe-inhibited ChEs, Relative activity [%], hAChE: 100 μM oxime, relative to sample not treated with OP, 20 min per footnote (1 h); for Relative reactivation, AChE, Sp-GB / Relative reactivation, AChE, Sp-GF / Relative reactivation, AChE, Sp-GA/ETP: mean ± standard deviation
hBuChE = hBuChE (Homo sapiens, UniProt P06276); assay: Reactivation of OP (nerve agent model compound)-inhibited hBuChE, modified Ellman's assay; conditions: for Reactivation of Sp-GBC-inhibited ChEs, Relative activity [%], hBuChE / Reactivation of Sp-GF-SMe-inhibited ChEs, Relative activity [%], hBuChE: 100 μM oxime, 20 min incubation, relative to sample not treated with OP; for Relative reactivation, BChE, Sp-GB / Relative reactivation, BChE, Sp-GF / Relative reactivation, BChE, Sp-GA/ETP: mean ± standard deviation
[1] = Table 4, Sp-GB (sarin model)-inhibited hAChE
[2] = Table 4, Sp-GF (cyclosarin model)-inhibited hAChE
[3] = Table 4, tabun model (Sp-GA)/Echothiophate-inhibited hAChE
[4] = Table 4, Sp-GB (sarin model)-inhibited hBChE
[5] = Table 4, Sp-GF (cyclosarin model)-inhibited hBChE
[6] = Table 4, tabun model (Sp-GA)/Echothiophate-inhibited hBChE
[7] = Table 5, Sp-GA/ETP-inhibited hAChE
[8] = Table 5, Sp-GA/ETP-inhibited hBChE

Molecule: N′-Benzyl-2-(hydroxyimino)-N,N-dimethylacetimidamide hydro-chloride salt
- Reactivation of Sp-GBC-inhibited ChEs, Relative activity [%], hAChE (hAChE): 6%
- Reactivation of Sp-GF-SMe-inhibited ChEs, Relative activity [%], hAChE (hAChE): 2%
- Relative reactivation, AChE, Sp-GB (hAChE; [1]): 0.15 ± 0.01
- Relative reactivation, AChE, Sp-GF (hAChE; [2]): 0.05 ± 0.01
- Relative reactivation, AChE, Sp-GA/ETP (hAChE; [3]): 0.11 ± 0.01
- Reactivation of Sp-GBC-inhibited ChEs, Relative activity [%], hBuChE (hBuChE): 47%
- Reactivation of Sp-GF-SMe-inhibited ChEs, Relative activity [%], hBuChE (hBuChE): 78%
- Relative reactivation, BChE, Sp-GB (hBuChE; [4]): 0.47 ± 0.05
- Relative reactivation, BChE, Sp-GF (hBuChE; [5]): 0.78 ± 0.03
- Relative reactivation, BChE, Sp-GA/ETP (hBuChE; [6]): 0.04 ± 0

Molecule: 2-(Hydroxyimino)-N,N-dimethyl-N′-propylacetimidamide hydro-chloride
- Reactivation of Sp-GBC-inhibited ChEs, Relative activity [%], hAChE (hAChE): 23%
- Reactivation of Sp-GF-SMe-inhibited ChEs, Relative activity [%], hAChE (hAChE): 7%
- Relative reactivation, AChE, Sp-GB (hAChE; [1]): 0.51 ± 0.05
- Relative reactivation, AChE, Sp-GF (hAChE; [2]): 0.09 ± 0.01
- Relative reactivation, AChE, Sp-GA/ETP (hAChE; [3]): 0.34 ± 0.03
- Reactivation of Sp-GBC-inhibited ChEs, Relative activity [%], hBuChE (hBuChE): 92%
- Reactivation of Sp-GF-SMe-inhibited ChEs, Relative activity [%], hBuChE (hBuChE): 89%
- Relative reactivation, BChE, Sp-GB (hBuChE; [4]): 0.98 ± 0.05
- Relative reactivation, BChE, Sp-GF (hBuChE; [5]): 1.02 ± 0.11
- Relative reactivation, BChE, Sp-GA/ETP (hBuChE; [6]): 0.26 ± 0

Molecule: CC(C)CCN=C(C=NO)N(C)C.Cl
- Relative reactivation, BChE, Sp-GB (hBuChE; [4]): 0.55 ± 0.04
- Relative reactivation, BChE, Sp-GF (hBuChE; [5]): 0.84 ± 0.12
- Relative reactivation, BChE, Sp-GA/ETP (hBuChE; [6]): 0.06 ± 0.01

Molecule: 1-(3,5-Bis(trifluoromethyl)benzyl)-1,4,5,6-tetrallydropyrimidine-2-carbaldehyde oxime hydrochloride
- Relative reactivation, AChE, Sp-GA/ETP (hAChE; [7]): 0.33 ± 0.01
- Relative reactivation, AChE, Sp-GB (hAChE; Table 5, Sp-GB-inhibited hAChE): 0.22 ± 0.01
- Relative reactivation, AChE, Sp-GF (hAChE; Table 5, Sp-GF-inhibited hAChE): 0.22 ± 0.01
- Relative reactivation, BChE, Sp-GA/ETP (hBuChE; [8]): 0.32 ± 0.03
- Relative reactivation, BChE, Sp-GB (hBuChE; Table 5, Sp-GB-inhibited hBChE): 1.02 ± 0.02
- Relative reactivation, BChE, Sp-GF (hBuChE; Table 5, Sp-GF-inhibited hBChE): 1.09 ± 0.20

Molecule: 2-(Hydroxyimino)-N′-(2-methoxyethyl)-N,N-dimethyl-acetimid-amide hydrochloride salt
- Relative reactivation, AChE, Sp-GB (hAChE; [1]): 0.20 ± 0.01
- Relative reactivation, AChE, Sp-GF (hAChE; [2]): 0.03 ± 0
- Relative reactivation, AChE, Sp-GA/ETP (hAChE; [3]): 0.08 ± 0.03
- Relative reactivation, BChE, Sp-GB (hBuChE; [4]): 0.51 ± 0.04
- Relative reactivation, BChE, Sp-GF (hBuChE; [5]): 0.33 ± 0.01
- Relative reactivation, BChE, Sp-GA/ETP (hBuChE; [6]): 0.07 ± 0.02

Molecule: CN(C)C(C=NO)=Nc1ccccc1.Cl
- Reactivation of Sp-GBC-inhibited ChEs, Relative activity [%], hBuChE (hBuChE): 79%
- Reactivation of Sp-GF-SMe-inhibited ChEs, Relative activity [%], hBuChE (hBuChE): 73%
- Relative reactivation, BChE, Sp-GB (hBuChE; [4]): 0.79 ± 0.04
- Relative reactivation, BChE, Sp-GF (hBuChE; [5]): 0.73 ± 0.03
- Relative reactivation, BChE, Sp-GA/ETP (hBuChE; [6]): 0.18 ± 0.01

Molecule: 1-Butyl-4,5-dihydro-1H-imidazole-2-carbaldehyde oxime hydro-chloride
- Relative reactivation, AChE, Sp-GA/ETP (hAChE; [7]): 0.29 ± 0.01
- Relative reactivation, AChE, Sp-GB (hAChE; Table 5, Sp-GB-inhibited hAChE): 0.60 ± 0.1
- Relative reactivation, AChE, Sp-GF (hAChE; Table 5, Sp-GF-inhibited hAChE): 0.21 ± 0.02
- Relative reactivation, BChE, Sp-GA/ETP (hBuChE; [8]): 0.08 ± 0.03
- Relative reactivation, BChE, Sp-GB (hBuChE; Table 5, Sp-GB-inhibited hBChE): 0.46 ± 0.02
- Relative reactivation, BChE, Sp-GF (hBuChE; Table 5, Sp-GF-inhibited hBChE): 0.76 ± 0.08

Molecule: 2-(Hydroxyimino)-N,N-dimethyl-N′-pentylacetimidamide hydro-chloride salt
- Relative reactivation, AChE, Sp-GB (hAChE; [1]): 0.42 ± 0.03
- Relative reactivation, AChE, Sp-GF (hAChE; [2]): 0.11 ± 0.01
- Relative reactivation, AChE, Sp-GA/ETP (hAChE; [3]): 0.30 ± 0.01
- Relative reactivation, BChE, Sp-GB (hBuChE; [4]): 0.84 ± 0.01
- Relative reactivation, BChE, Sp-GF (hBuChE; [5]): 0.86 ± 0.11
- Relative reactivation, BChE, Sp-GA/ETP (hBuChE; [6]): 0.11 ± 0.04

Molecule: N′-Cyclobutyl-2-(hydroxyimino)-N,N-dimethylacetimid-amide hydrochloride salt
- Relative reactivation, AChE, Sp-GB (hAChE; [1]): 0.51 ± 0.04
- Relative reactivation, AChE, Sp-GF (hAChE; [2]): 0.12 ± 0.01
- Relative reactivation, AChE, Sp-GA/ETP (hAChE; [3]): 0.17 ± 0.02
- Relative reactivation, BChE, Sp-GB (hBuChE; [4]): 0.86 ± 0.05
- Relative reactivation, BChE, Sp-GF (hBuChE; [5]): 0.58 ± 0.04
- Relative reactivation, BChE, Sp-GA/ETP (hBuChE; [6]): 0.14 ± 0.01

Molecule: N′-Cyclopropyl-2-(hydroxyimino)-N,N-dimethylacetimid-amide hydrochloride salt
- Relative reactivation, AChE, Sp-GB (hAChE; [1]): 0.61 ± 0.04
- Relative reactivation, AChE, Sp-GF (hAChE; [2]): 0.11 ± 0.01
- Relative reactivation, AChE, Sp-GA/ETP (hAChE; [3]): 0.15 ± 0.01
- Relative reactivation, BChE, Sp-GB (hBuChE; [4]): 0.73 ± 0.05
- Relative reactivation, BChE, Sp-GF (hBuChE; [5]): 0.56 ± 0.03
- Relative reactivation, BChE, Sp-GA/ETP (hBuChE; [6]): 0.13 ± 0.03

Molecule: Cl.ON=CC1=NCCCN1Cc1ccc(Cl)cc1Cl
- Relative reactivation, BChE, Sp-GA/ETP (hBuChE; [8]): 0.34 ± 0.07
- Relative reactivation, BChE, Sp-GB (hBuChE; Table 5, Sp-GB-inhibited hBChE): 0.86 ± 0.01
- Relative reactivation, BChE, Sp-GF (hBuChE; Table 5, Sp-GF-inhibited hBChE): 0.80 ± 0.13

Molecule: Cl.ON=CC1=NCCN1Cc1ccccc1
- Reactivation of Sp-GBC-inhibited ChEs, Relative activity [%], hBuChE (hBuChE): 61%
- Reactivation of Sp-GF-SMe-inhibited ChEs, Relative activity [%], hBuChE (hBuChE): 90%
